# Source: PubChem
# Many of the other results were omitted from the sample, so hits are more common in it than they were.
# GIV Gai3 FP – blocks GIV peptide binding to rat Galpha-i3. P08753. Galpha-i3/FITC-GIV peptide fluorescence polarization, 90 min; hits give low values; scaled: aluminum fluoride 0%, vehicle 100%. percent of control (FP), % (test concentration not listed). hit rate 0.42% among 210,000;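 active means replicate mean at 85% of control or lower, very high polarization wells dropped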;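 further: wells of about 15 µL received 100 nL stock; the first replicate is given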
# HCMV NEC inh – disrupts HCMV UL50-UL53 complex binding | HTRF UL50-UL53 interaction, normalized percent inhibition | inhibition, % (test concentration not listed) | 0.15% of 190,000 active; in the data active = inhibition above about 27%, passing the limit was not always enough
# Starred values were filed as active, the others as inactive; . = not tested or not shown.
# The first 2 compounds, ahead of the listing:
(1) Cc1ccc2c(=O)c(C(=O)c3ccccc3)cn(CC(=O)Nc3ccccc3)c2n1
(2) Cc1ccc2c(=O)c(C(=O)c3ccccc3)cn(CC(=O)Nc3ccc(C)c(F)c3)c2n1

Screen / compound no. | 1 | 2
GIV Gai3 FP | 113.4 | 139.1
HCMV NEC inh | . | 72.5*

# Main list, from the first entry:
(1) Cc1ccc2c(=O)c(C(=O)c3ccccc3)cn(CC(=O)Nc3ccccc3)c2n1
(2) Cc1ccc2c(=O)c(C(=O)c3ccccc3)cn(CC(=O)Nc3ccc(C)c(F)c3)c2n1
(3) CCOC(=O)c1sc(NC(=O)C2c3ccccc3Oc3ccccc32)c(C#N)c1C
(4) CCOC(=O)c1sc(N/C=C(\C#N)c2nc3cc(Cl)ccc3o2)c(C#N)c1C
(5) O=C(O)CCCN1C(=O)/C(=C/c2c(N3CCN(Cc4ccccc4)CC3)nc3ccccn3c2=O)SC1=S
(6) CC(C)CN1C(=O)/C(=C/c2c(N3CCN(CCO)CC3)nc3ccccn3c2=O)SC1=S
(7) CSc1nc(NCc2ccccc2)c(C#N)c(-c2ccccc2)n1
(8) CSc1nc(NC(C)C)c(C#N)c(-c2ccccc2)n1

Screen / compound no. | 1 | 2 | 3 | 4 | 5 | 6 | 7 | 8
GIV Gai3 FP | 113.4 | 139.1 | 105.9 | -7.6* | 145.6 | 41.4* | 100.2 | 97.1
HCMV NEC inh | . | 72.5* | 1.9 | -6.3 | -1.3 | -85.9 | 21.6 | 28.8*

(9) Oc1ccc(NC(=S)Nc2ccc(O)cc2)cc1
(10) CNc1ccc(O)cc1
(11) NS(=O)(=O)c1ccc(CCNC(=O)CSc2nc3ccccc3c(=O)n2CCC(=O)NC2CCCCC2)cc1
(12) Cc1csc(-c2cc(S(=O)(=O)Nc3ccc(C)c(F)c3)c(C)s2)n1
(13) Cc1csc(-c2cc(S(=O)(=O)Nc3ccc(S(N)(=O)=O)cc3)c(C)s2)n1
(14) CCCS(=O)(=O)N1CCN=C1N1CCN(c2ccc(F)cc2)CC1
(15) COc1ccc(Cl)cc1NC(=O)c1cn(C2CCCCC2)c(=O)c2c1c1ccccc1n2C
(16) CCOc1ccccc1NC(=O)c1cn(C2CCCCC2)c(=O)c2c1c1ccccc1n2C

Screen / compound no. | 9 | 10 | 11 | 12 | 13 | 14 | 15 | 16
GIV Gai3 FP | 108.2 | . | 101.6 | 65.7* | 170.0 | 106.7 | 104.3 | 100.0
HCMV NEC inh | -11.4 | 68.9* | . | . | . | -22.3 | 13.5 | 54.5*

(17) COc1ccc(N(C(C)=O)S(=O)(=O)c2ccc(F)cc2)cc1
(18) N#C/C(=C\c1[nH]c2ccccc2c1O)C(=N)N1CCOCC1
(19) COc1ccc(N=C(N)/C(C#N)=C/c2[nH]c3ccccc3c2O)cc1
(20) Cc1ccccc1-n1nnnc1Sc1nnnn1-c1ccccc1
(21) Cc1cccc(-n2c(Sc3nnnn3-c3ccccc3)nc3ccccc3c2=O)c1C
(22) CCN(CC)c1ccc2cc(-c3nc4sc5c(c4c(=O)[nH]3)CCC(C(C)(C)C)C5)c(=O)oc2c1 (stereo not drawn)
(23) CC(C)(C)C1CCc2c(sc3nc(-c4cc5ccccc5oc4=O)[nH]c(=O)c23)C1 (stereo not drawn)
(24) CCNS(=O)(=O)c1cc(-c2nc(C)cs2)n(C)c1C

Screen / compound no. | 17 | 18 | 19 | 20 | 21 | 22 | 23 | 24
GIV Gai3 FP | 105.2 | -18.2* | 259.0 | . | . | -66.0* | 108.4 | 105.2
HCMV NEC inh | -8.9 | . | . | 39.7* | -15.8 | -4.7 | -8.4 | .

(25) O=c1[nH]c(=O)c2nc3c(ccc4nsnc43)nc2[nH]1
(26) Nc1ccc2nc3c(=O)[nH]c(=O)[nH]c3nc2c1
(27) C#CCN1C(=O)S/C(=C/C=C/c2ccc(N(C)C)cc2)C1=O
(28) CN1C(=O)/C(=C\C=C\c2ccc(N(C)C)cc2)SC1=S
(29) CC(C)(C)NC(=O)NCc1nc(-c2ccccc2)no1
(30) COc1cccc2c1C(=O)c1c(O)c3c(c(O)c1C2=O)C[C@@](O)(C(=O)CO)C[C@@H]3O[C@H]1C[C@H](N)[C@H](O)[C@H](C)O1
(31) COc1cccc2c1C(=O)c1c(O)c3c(c(O)c1C2=O)C[C@@](O)(C(=O)CO)CC3OC1CC(N)C(O)C(C)O1 (stereo partly drawn)
(32) Cc1nc(-c2ccc(OC(F)F)cc2)cs1

Screen / compound no. | 25 | 26 | 27 | 28 | 29 | 30 | 31 | 32
GIV Gai3 FP | 120.3 | 17.5* | -61.3* | 125.5 | 100.1 | -14.4* | . | 103.3
HCMV NEC inh | . | . | -24.1 | . | -39.5 | -177.5 | -163.0 | -7.6

(33) C=CC(=O)Nc1cccc(Oc2ccnc3[nH]ccc23)c1
(34) C=CC(=O)Nc1cccc(Oc2ccnc(Nc3ccc(N4CCN(C)CC4)cc3)n2)c1
(35) CN1C(=O)N(C)C(NC(=O)NCCO)C1NC(=O)NCCO (stereo not drawn)
(36) COC(=O)CNc1ccc(C)c(C)c1
(37) COc1cccc(C2=CC(c3ccccc3F)n3ncc(C(=O)Nc4ccc(F)cc4)c3N2)c1 (stereo not drawn)
(38) COc1ccc(C2=CC(c3ccccc3F)n3ncc(C(=O)Nc4ccc(C)cc4)c3N2)cc1 (stereo not drawn)
(39) N#CCOc1ccc2oc(-c3ccccc3)cc(=O)c2c1
(40) O=C1CC(=O)N(Cc2ccco2)C(=O)N1

Screen / compound no. | 33 | 34 | 35 | 36 | 37 | 38 | 39 | 40
GIV Gai3 FP | . | . | 105.3 | 106.3 | -59.8* | 105.5 | 108.2 | 58.5*
HCMV NEC inh | 33.4* | -6.2 | . | -24.8 | . | . | -16.0 | 86.7*

(41) O=C1CC(=O)N(Cc2cccs2)C(=O)N1
(42) COc1ccc(N=Cc2sc3ccccc3c2O)cc1
(43) O=[N+]([O-])c1cccc(N=Cc2sc3ccccc3c2O)c1
(44) Cc1cc(C)c(NC(=O)c2cc(-c3cccnc3)on2)c(C)c1
(45) CC(=O)Nc1ccc(NC2SC(=O)N(c3ccccc3)C2=O)cc1 (stereo not drawn)
(46) CC(=O)Oc1ccc2cc(-c3nc4c(s3)CCc3ccccc3-4)c(=O)oc2c1
(47) CC(=O)Oc1ccc2cc(-c3nnc(-c4ccccc4)o3)c(=O)oc2c1
(48) O=C(O)C1CCN(C(=O)C2CCCCC2)CC1

Screen / compound no. | 41 | 42 | 43 | 44 | 45 | 46 | 47 | 48
GIV Gai3 FP | 114.5 | -32.1* | 106.8 | 99.1 | . | -78.8* | 172.8 | 97.4
HCMV NEC inh | -4.8 | . | -24.4 | -10.1 | -10.5 | . | -31.7 | -18.8

(49) COc1ccccc1N1CCN(S(=O)(=O)c2ccc(F)c(C(=O)Nc3ccc(Cl)cc3F)c2)CC1
(50) COc1ccc(N=CC23c4ccccc4C(c4ccccc42)C2C(=O)N(c4ccccc4Cl)C(=O)C23)cc1 (stereo not drawn)
(51) Cc1cc(C(=O)CN(CC2CCCO2)C2CCS(=O)(=O)C2)c(C)n1C (stereo not drawn)
(52) O=C1c2ccccc2-c2c(NCCc3ccccc3)c(=O)[nH]c3cccc1c23
(53) O=C1c2ccccc2-c2c(Nc3ccccc3)c(=O)[nH]c3cccc1c23
(54) Nc1c2c3c(c(Cl)ccc3[nH]c1=O)C(=O)c1ccccc1-2
(55) CCCCNc1c2c3c(cccc3[nH]c1=O)C(=O)c1ccccc1-2
(56) COc1cc2c(C(=O)N3CCOCC3)c(C)n(-c3ccccc3)c2cc1Br

Screen / compound no. | 49 | 50 | 51 | 52 | 53 | 54 | 55 | 56
GIV Gai3 FP | 106.2 | 105.7 | . | -73.2* | 111.2 | 102.3 | -47.8* | 96.6
HCMV NEC inh | . | . | -15.2 | . | . | . | -57.5 | 4.9

# Single entries from above:
# Value for cpd 51 under HCMV NEC inh: -15.2
# Value for cpd 53 under GIV Gai3 FP: 111.2

# Continued.
(57) CCOc1ccc(S(=O)(=O)N2CCC(c3noc(-c4ccccc4)n3)CC2)cc1
(58) O=C(Nc1ccc(Cl)cc1)Nc1nc(CC(=O)N2CCN(C(=O)c3ccco3)CC2)cs1
(59) Cc1cc(N2CCCC2)ccc1/C=C/C1=CCN(C)CC1
(60) C=CCn1c(C)c(/C=C/C2=CCN(C)CC2)c2ccccc21
(61) CCOc1ccccc1Nc1c2c(nc3ncnn13)CCC2
(62) COc1ccc2[nH]c3c(c2c1)CCNC3c1ccc(C)cc1 (stereo not drawn)
(63) N#Cc1c(-c2ccco2)cc(-c2cccs2)nc1N
(64) Nc1c(C(=O)c2cccs2)oc2nc(-c3cccs3)cc(-c3ccco3)c12

Screen / compound no. | 57 | 58 | 59 | 60 | 61 | 62 | 63 | 64
GIV Gai3 FP | 102.9 | 104.0 | 113.3 | -11.2* | 110.1 | 102.2 | 114.2 | -53.5*
HCMV NEC inh | . | -27.3 | 34.6 | -65.5 | -7.3 | -31.4 | 45.2 | -30.8

(65) CCOC(=O)CC(NC(=O)Nc1c(-c2cccnc2)[nH]c2ccccc12)c1ccccc1 (stereo not drawn)
(66) CN1CCc2c(sc3c2C(=O)NC(c2ccc(OC(=O)c4ccc(Cl)cc4)cc2)N3)C1 (stereo not drawn)
(67) CN1CCc2c(sc3c2C(=O)NC(c2ccc(OC(=O)c4ccccc4)cc2)N3)C1 (stereo not drawn)
(68) N#CC(C#N)=Cc1ccc(-c2ccc3c(c2)COC3=O)o1
(69) Nc1nnnn1N=Cc1ccc(-c2ccc3c(c2)COC3=O)o1
(70) O=C(CN1CCC(O)(c2ccccc2)CC1)NC1CCCCC1
(71) O=C1NC(=O)N(C2CCCCC2)C(=O)/C1=C\c1ccc(-c2ccc(C(=O)O)cc2)o1

Screen / compound no. | 65 | 66 | 67 | 68 | 69 | 70 | 71
GIV Gai3 FP | 98.6 | 220.9 | 23.1* | 102.0 | 36.5* | 107.6 | 111.9
HCMV NEC inh | . | -92.9 | -122.7 | -34.0 | . | -5.0 | -24.1

# Profiles as entered above. Screens in order: GIV Gai3 FP	HCMV NEC inh
# CN1CCc2c(sc3c2C(=O)NC(c2ccc(OC(=O)c4ccccc4)cc2)N3)C1 (stereo not drawn) in the list: 23.1*	-122.7
# O=C1NC(=O)N(C2CCCCC2)C(=O)/C1=C\c1ccc(-c2ccc(C(=O)O)cc2)o1 in the list: 111.9	-24.1
